TDP1 cell CPT – growth inhibition of DT40 Tdp1-/-;hTDP1 cells with camptothecin (screen for TDP1 inhibitors); chicken DT40 Tdp1-/-;hTDP1 cells + 20 nM CPT, ATP luminescence, 48 h; Potency, µM (series often up to 46.2 µM), inactives show at the highest dose activity change, negative = growth inhibition, most hits filed as inhibitors; actives 12% (n = 420,000); also: potency is read from the fitted curve at half-maximal effect; % is scaled to controls: 0 for no effect and ±100 for the full control effect; nearly all actives have a fitted effect of over 55% in size
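Chicken DT40 Tdp1-/- cells complemented with human TDP1, 400 cells/well, exposed to compounds plus 20 nM camptothecin for at least 48 h at 37 C; viability read as ATP content by CellTiter-Glo luminescence.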
DT40 TDP1 no CPT – qHTS for Inhibitors of human tyrosyl-DNA phosphodiesterase 1 (TDP1): qHTS in cells in absence of CPT; DT40 Tdp1-/- hTDP1 cells, no CPT, ATP luminescence, 48 h; Potency, µM (doses to about 46.2 µM), without a hit: top-dose activity change, negative = growth inhibition, actives largely listed as inhibitors; actives 15% (n = 420,000); AID 686978, 2013; also: potency is read from the fitted curve at half-maximal effect; % is scaled to controls: 0 for no effect and ±100 for the full control effect; nearly all actives have a fitted effect of over 55% in size
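No-CPT arm: Tdp1-/-;hTDP1 DT40 cells (400/well) plus compounds, incubated ≥48 hr at 37 °C. Readout CellTiter-Glo luminescence.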
TDP1 inh – inhibitors of human tyrosyl-DNA phosphodiesterase TDP1 | Potency, µM (series often up to 130 µM), inactives show at the top dose activity change, negative = inhibition, usual class: inhibitors | Q9NUW8 | actives 0.28% (n = 350,000) | recombinant TDP1, AlphaScreen DNA substrate cleavage; also: potency is read from the fitted curve at half-maximal effect; % is scaled to controls: 0 for no effect and ±100 for the full control effect; nearly all actives have a fitted effect of over 40% in size
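E. coli-derived human Tdp1, 1 nM final. Cpd preinc 15 min RT; substrate 15 nM final, 5 min RT; AS bead mix 10 ug/ml final, 10 min RT. Signal loss = tyrosine-FITC cleavage. No-enzyme wells = max signal.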
miR-21 reporter – miR-21 reporter, rising signal; Potency, µM (top dose mostly 38.3 µM), for the others: at the highest dose reporter change, positive = more light; 340,000 tested, under 10 active; HeLa miR-21 FLuc reporter, luciferase, 48 h; active = well fitted rising curve with a large enough effect; inconclusive = small, poorly fitted or top-dose-only effect; inactive = no such curve, though single readings can be large or run the other way;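 note: % of control where 0% means no effect; miR-21 action dims this reporter so a rising signal means less miR-21 action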
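Luminescence from a firefly luciferase reporter carrying a miR-21 binding site downstream, stably expressed under a CMV promoter in HeLa cells that make miR-21 endogenously, reports miRNA modulation after 48 h compound exposure up to approximately 40uM final.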
uPA generation – cell surface uPA generation inhibition; cell surface uPA generation assay, qHTS; actives 0.31% (n = 330,000); Potency, µM (titrated, usually from 38.3 µM), without a hit: top-dose activity change, negative = inhibition, hits mostly inhibitors; AID 540303; active = well fitted inhibition curve with a large enough effect; inconclusive = small, poorly fitted or top-dose-only effect; inactive = no such curve, though single readings can be large or run the other way; tested in mouse RAW 264.7 cells; also: potency is read from the fitted curve at half-maximal effect; % is scaled to controls: 0 for no effect and ±100 for the full control effect; nearly all actives have a fitted effect of over 55% in size
Numbers without * were called inactive; ? = inconclusive; . = no result given. Compounds with a hit are over-represented: about 16% of the library has one in this group of screens. Unless noted, calls follow the shape of the dose curve; as a rule, active = well fitted curve in the direction sought with a large enough effect; inconclusive = small, poorly fitted or top-dose-only effect, or another doubt; inactive = no such curve, though single readings can be large; an effect the other way counts as inactive or inconclusive.

SMILES,TDP1 cell CPT,miR-21 reporter,uPA generation,DT40 TDP1 no CPT,TDP1 inh
COc1ccc(-c2cn3c(n2)sc2cc(C(=O)NC4CCCCCC4)ccc23)cc1,?,-3%,.,7.3µM*,0%
COc1ccc(-c2cn3c(n2)sc2cc(C(=O)Nc4cccc(SC)c4)ccc23)cc1,5.2µM*,21%,.,6.5µM*,1%
CC(NC(=O)c1ccc(Br)s1)c1ccncc1 (configuration not stated),-1%,-2%,-9%,-22%,-2%
COc1ccc(NC(=O)NC2(C(=O)N3CCCC3)CCCCC2)cc1,-6%,0%,1%,-18%,3%
O=C(NC1CCCc2ccccc21)c1ccc2c(c1)sc1nc(-c3ccccc3)cn12 (configuration not stated),8.2µM*,24%,.,18µM*,1%
COc1cccc(-c2cn3c(n2)sc2cc(C(=O)NC4CCCCC4)ccc23)c1,?,3%,.,?,1%
CCc1nnc(NS(=O)(=O)c2ccc(NC(=O)C(c3ccccc3)c3ccccc3)cc2)s1,19%,.,1%,-1%,.
CCCCNC(=O)c1ccc2nc(CC)c(N(CC)CCOC)n2c1,26µM*,.,.,21µM*,.
CCc1nc2ccc(C(=O)NCCCN(C)C)cn2c1N(CC)CCOC,2%,.,.,2%,.
CCc1nc2ccc(C(=O)NCCc3ccccn3)cn2c1N(C)CCC(C)C,?,.,.,26µM*,.
CCc1nc2ccc(C(=O)NCc3ccc(OC)cc3)cn2c1N(CC)CCOC,15µM*,.,.,?,.
CCc1nc2ccc(C(=O)Nc3cccc(OC)c3)cn2c1N(CC)CCN(C)C,4%,.,.,3%,.
CCc1nc2ccc(C(=O)Nc3cccc(OC)c3)cn2c1N(CC)CCOC,13µM*,.,.,18µM*,.
CCc1nnc2c(Nc3ccccc3Br)nc3ccccc3n12,-28%,-2%,.,?,5%
CC12CCC(C(=O)N3CCc4ccccc43)(CC1=O)C2(C)C (configuration not stated),-12%,5%,-1%,?,-7%
CCc1nc2ccc(C(=O)NCc3ccccc3OC)cn2c1N(CC)CCOC,16µM*,.,.,16µM*,.
CCc1nc2ccc(C(=O)NCCOc3ccc(OC)cc3)cn2c1N(CCC(C)C)CCN(C)C,-89%,.,.,-78%,.
CCc1nc2ccc(C(=O)NCc3ccc(OC)cc3)cn2c1N(C)CCC(C)C,?,.,.,23µM*,.
Cc1cccc(NC(=O)c2ccc3snnc3c2)c1,-11%,-36%,.,-6%,-3%
C=CCN(c1ccccc1)S(=O)(=O)c1cccc(C(=O)Nc2nc3ccccc3[nH]2)c1,21µM*,12%,-8%,13µM*,3%

Entries of single compounds, looked up by structure. Screens in order: TDP1 cell CPT | miR-21 reporter | uPA generation | DT40 TDP1 no CPT | TDP1 inh
Record of `CCc1nc2ccc(C(=O)NCCc3ccccn3)cn2c1N(C)CCC(C)C` → ? | . | . | 26µM* | .
Record of `CCc1nnc2c(Nc3ccccc3Br)nc3ccccc3n12` → -28% | -2% | . | ? | 5%
Record of `COc1ccc(-c2cn3c(n2)sc2cc(C(=O)NC4CCCCCC4)ccc23)cc1` → ? | -3% | . | 7.3µM* | 0%
Record of `CC(NC(=O)c1ccc(Br)s1)c1ccncc1` (configuration not stated) → -1% | -2% | -9% | -22% | -2%
Record of `C=CCN(c1ccccc1)S(=O)(=O)c1cccc(C(=O)Nc2nc3ccccc3[nH]2)c1` → 21µM* | 12% | -8% | 13µM* | 3%

Next section.
SMILES,TDP1 cell CPT,miR-21 reporter,uPA generation,DT40 TDP1 no CPT,TDP1 inh
C=CCN(c1ccccc1)S(=O)(=O)c1cccc(C(=O)Nc2ncccc2C)c1,-6%,.,0%,-8%,5%
C=CCN(c1ccccc1)S(=O)(=O)c1cccc(C(=O)Nc2ccncc2)c1,23µM*,.,-3%,21µM*,.
C=CCN(c1ccccc1)S(=O)(=O)c1cccc(C(=O)NCc2ccncc2)c1,?,.,-6%,?,.
C=CCN(c1ccccc1)S(=O)(=O)c1cccc(C(=O)O)c1,1%,0%,1%,-6%,4%
C=CCN(c1ccccc1)S(=O)(=O)c1cccc(C(=O)N2CCN(c3ncccn3)CC2)c1,6.5µM*,.,-7%,3.7µM*,3%
C=CCN(c1ccccc1)S(=O)(=O)c1cccc(C(=O)Nc2ccc(N3CCOCC3)cc2)c1,9.2µM*,.,-4%,2.6µM*,8%
Cn1c(=O)n(C)c2cc(NC(=O)CSc3ccccc3)ccc21,-21%,-1%,-3%,-9%,2%
CN(C)c1cccc(C(=O)OCC(=O)c2ccc[nH]2)c1,?,.,-1%,-18%,5%
CC(CCc1ccccc1)NC(=O)c1ccccc1F (configuration not stated),-19%,-5%,3%,?,4%
O=C(Nc1cccc(F)c1)N1CCC2(CC1)CCN(C(=O)c1ccncc1)CC2,11%,.,.,-17%,.
Cc1ccc(C(=O)NC(=S)Nc2cccc3nsnc23)cc1,-15%,-38%,8%,-19%,-4%
COc1cc(C(=O)NC(=S)Nc2cccc3nc(C)ccc23)cc(OC)c1OC,4%,3%,0%,-8%,.
Cc1ccc(C(=O)NC(=S)Nc2cccc3c(C)cc(C)nc23)cc1,?,-13%,3%,21µM*,10%
COc1ccc(C(=O)NC(=S)Nc2cccc3nc(C)ccc23)cc1OC,?,0%,14%,21µM*,.
COc1cccc(CN(C)Cc2cc(=O)oc3cc(O)c(Cl)cc23)c1,0%,-12%,0%,?,.
CCN(c1ccccc1)S(=O)(=O)c1ccc(C(=O)Nc2ncccc2C)cc1,1%,.,2%,-10%,.
Cc1ccnc(NC(=O)C(Cc2ccccc2)NC(=O)c2ccccc2)c1 (configuration not stated),?,.,4%,16µM*,1%
CCN(c1ccccc1)S(=O)(=O)c1ccc(C(=O)Nc2cccc(NC(C)=O)c2)cc1,?,.,-2%,-21%,1%
CCN(c1ccccc1)S(=O)(=O)c1ccc(C(=O)Nc2ccncc2)cc1,23µM*,.,-2%,21µM*,0%
CCN(c1ccccc1)S(=O)(=O)c1ccc(C(=O)Nc2cc(C)ccn2)cc1,16µM*,.,2%,18µM*,1%
Cn1ncc(Cl)c1C(=O)Nc1nc2ccc(Cl)cc2s1,16µM*,-51%,-6%,23µM*,-3%
COc1cccc(Oc2nc(-c3ccccc3O)nc3ccccc23)c1,-7%,3%,4%,-1%,.
COc1ccc(N(C)C(=O)CCn2cnc3onc(-c4ccc(F)cc4)c3c2=O)c(OC)c1,21µM*,14%,.,13µM*,-2%
CCOc1ccccc1N(C)C(=O)Cn1cnc2onc(-c3ccc(F)cc3)c2c1=O,?,-4%,.,21µM*,3%
CN(C(=O)Cn1cnc2onc(-c3ccc(F)cc3)c2c1=O)c1ccccc1Cl,21µM*,-5%,.,?,5%
O=C(O)CCn1cnc2onc(-c3cc(F)cc(F)c3)c2c1=O,1%,0%,.,5%,4%
CCCN(CCC)CCCNC(=O)Cn1cnc2onc(-c3ccc(F)cc3)c2c1=O,-14%,-5%,.,-25%,4%
COc1ccc2cc(C(C)C(=O)OC(C)C)ccc2c1 (configuration not stated),-13%,.,9%,-7%,79µM*
COc1ccc(CCN=CC2=C(O)CCCC2=O)cc1OC,2%,0%,-2%,-4%,4%
Cc1ccc(C)c(Cn2nnc3c(=O)[nH]c(C4CCN(S(=O)(=O)c5ccc(S(=O)(=O)N(C)C)cc5)CC4)nc32)c1,18µM*,1%,1%,?,0%
